# Cyclic peptide permeability, from CycPeptMPDB

Data: CycPeptMPDB; original report Townsend et al. 2020, doi:10.26434/chemrxiv.13335941.v1.

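Conditions beyond the assay type are not listed; see the original paper. The list need not hold all peptides of the study. Peptides that the database sets to -10, its floor, are left out.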

PAMPA measures passive passage through an artificial lipid membrane. Values are log10 P with P in cm/s, so -5 is more permeable than -7.

compound | PAMPA (log10 cm/s)
CC(C)C[C@@H]1C(=O)N2CCC[C@@H]2C(=O)N(C)[C@@H](CC(C)C)C(=O)N[C@@H](Cc2ccccc2)C(=O)N[C@@H](C)C(=O)N[C@H](CC(C)C)C(=O)N1C | -5.65
CC(C)C[C@@H]1C(=O)N2CCC[C@H]2C(=O)N(C)[C@H](CC(C)C)C(=O)N[C@@H](Cc2ccccc2)C(=O)N2CCC[C@H]2C(=O)N(C)[C@H](C)C(=O)N[C@H](CC(C)C)C(=O)N1C | -5.26
CC(C)C[C@@H]1NC(=O)CN(Cc2ccccc2)C(=O)[C@H](C)N(C)C(=O)[C@@H]2CCCN2C(=O)[C@H](Cc2ccccc2)NC(=O)CN(Cc2ccccc2)C(=O)[C@@H]2CCCN2C1=O | -5.81
CC(C)C[C@H]1NC(=O)C[C@H](Cc2ccccc2)NC(=O)[C@H]2CCCN2C(=O)[C@H](Cc2ccccc2)NC(=O)[C@H](CC(C)C)N(C)C(=O)[C@H]2CCCN2C(=O)[C@@H](CC(C)C)NC1=O | -6.01
CC(C)C[C@@H]1NC(=O)[C@@H]2CCCN2C(=O)C[C@H](Cc2ccccc2)NC(=O)[C@@H](CC(C)C)N(C)C(=O)C[C@H](Cc2ccccc2)NC(=O)[C@H]2CCCN2C(=O)[C@H](Cc2ccccc2)NC1=O | -5.94
CC(C)C[C@@H]1NC(=O)C[C@H](Cc2ccccc2)NC(=O)[C@H]2CCCN2C(=O)[C@H](Cc2ccccc2)NC(=O)[C@@H](CC(C)C)NC(=O)[C@H]2CCCN2C(=O)CN(Cc2ccccc2)C1=O | -5.75
CCCN1CC(=O)N[C@H](CC(C)C)C(=O)N[C@@H](CC(C)C)C(=O)N2CCC[C@H]2C(=O)N(Cc2ccccc2)CC(=O)N[C@@H](Cc2ccccc2)C(=O)N2CCC[C@@H]2C1=O | -5.79
CC(C)C[C@@H]1NC(=O)[C@H]2CCCN2C(=O)[C@H](CC(C)C)NC(=O)[C@H](CC(C)C)N(C)C(=O)[C@@H](C)N(C)C(=O)[C@H](Cc2ccccc2)NC1=O | -5.40
CC(C)C[C@@H]1C(=O)N2CCC[C@H]2C(=O)N(C)[C@@H](CC(C)C)C(=O)N[C@@H](Cc2ccccc2)C(=O)N2CCC[C@H]2C(=O)N(C)[C@H](C)C(=O)N[C@H](CC(C)C)C(=O)N1C | -5.33
CC(C)C[C@@H]1NC(=O)[C@@H]2CCCN2C(=O)[C@@H](CC(C)C)N(C)C(=O)[C@H](CC(C)C)NC(=O)C[C@H](Cc2ccccc2)NC(=O)[C@H](Cc2ccccc2)NC1=O | -5.16
CC(C)C[C@@H]1C(=O)N(Cc2ccccc2)CC(=O)N2CCC[C@H]2C(=O)N[C@H](CC(C)C)C(=O)N[C@@H](Cc2ccccc2)C(=O)N2CCC[C@H]2C(=O)N[C@@H](Cc2ccccc2)CC(=O)N1C | -6.18
CC(C)C[C@@H]1C(=O)N2CCC[C@@H]2C(=O)N(Cc2ccccc2)CC(=O)N[C@@H](Cc2ccccc2)C(=O)N[C@H](C)C(=O)N(C)[C@@H](CC(C)C)C(=O)N1C | -5.57
CC(C)C[C@H]1NC(=O)[C@H](C)N(C)C(=O)[C@H](Cc2ccccc2)NC(=O)CN(Cc2ccccc2)C(=O)[C@@H]2CCCN2C(=O)CN(Cc2ccccc2)C1=O | -5.48
CC(C)C[C@@H]1NC(=O)[C@H](C)N(C)C(=O)[C@@H]2CCCN2C(=O)[C@H](Cc2ccccc2)NC(=O)CN(Cc2ccccc2)C(=O)[C@@H]2CCCN2C(=O)[C@@H](CC(C)C)N(C)C1=O | -5.66
CCCN1CC(=O)N(C)[C@@H](CC(C)C)C(=O)N[C@@H](CC(C)C)C(=O)N2CCC[C@H]2C(=O)N(C)[C@H](CC(C)C)C(=O)N[C@@H](Cc2ccccc2)C1=O | -4.80
CC(C)C[C@@H]1C(=O)N(Cc2ccccc2)CC(=O)N2CCC[C@H]2C(=O)N(C)[C@@H](CC(C)C)C(=O)N[C@@H](Cc2ccccc2)C(=O)N2CCC[C@@H]2C(=O)N[C@H](C)C(=O)N1C | -5.82
CCCN1CC(=O)N(Cc2ccccc2)CC(=O)N[C@@H](CC(C)C)C(=O)N2CCC[C@H]2C(=O)N(C)[C@H](CC(C)C)C(=O)N[C@@H](Cc2ccccc2)C(=O)N2CCC[C@@H]2C1=O | -5.51
CC(C)C[C@@H]1NC(=O)[C@@H](C)NC(=O)[C@@H]2CCCN2C(=O)[C@H](Cc2ccccc2)NC(=O)CN(Cc2ccccc2)C(=O)[C@@H]2CCCN2C(=O)CN(Cc2ccccc2)C1=O | -6.48
CC(C)C[C@@H]1C(=O)N2CCC[C@@H]2C(=O)N(C)[C@H](CC(C)C)C(=O)N[C@@H](Cc2ccccc2)C(=O)N[C@H](C)C(=O)N(Cc2ccccc2)CC(=O)N1C | -5.48
CC(C)C[C@@H]1NC(=O)CN(Cc2ccccc2)C(=O)C[C@H](Cc2ccccc2)NC(=O)[C@H]2CCCN2C(=O)[C@H](Cc2ccccc2)NC(=O)[C@@H](CC(C)C)NC(=O)[C@@H]2CCCN2C1=O | -5.79
CC(C)C[C@@H]1C(=O)N[C@H](CC(C)C)C(=O)N2CCC[C@@H]2C(=O)N(C)[C@@H](CC(C)C)C(=O)N[C@@H](Cc2ccccc2)C(=O)N2CCC[C@@H]2C(=O)N[C@H](C)C(=O)N1C | -5.82
CC(C)C[C@@H]1C(=O)N(C)[C@@H](CC(C)C)C(=O)N2CCC[C@@H]2C(=O)N[C@H](CC(C)C)C(=O)N[C@@H](Cc2ccccc2)C(=O)N2CCC[C@@H]2C(=O)N[C@@H](C)C(=O)N1C | -6.19

The first 3 entries again:

{"smiles": "CC(C)C[C@@H]1C(=O)N2CCC[C@@H]2C(=O)N(C)[C@@H](CC(C)C)C(=O)N[C@@H](Cc2ccccc2)C(=O)N[C@@H](C)C(=O)N[C@H](CC(C)C)C(=O)N1C", "PAMPA (log10 cm/s)": "-5.65"}
{"smiles": "CC(C)C[C@@H]1C(=O)N2CCC[C@H]2C(=O)N(C)[C@H](CC(C)C)C(=O)N[C@@H](Cc2ccccc2)C(=O)N2CCC[C@H]2C(=O)N(C)[C@H](C)C(=O)N[C@H](CC(C)C)C(=O)N1C", "PAMPA (log10 cm/s)": "-5.26"}
{"smiles": "CC(C)C[C@@H]1NC(=O)CN(Cc2ccccc2)C(=O)[C@H](C)N(C)C(=O)[C@@H]2CCCN2C(=O)[C@H](Cc2ccccc2)NC(=O)CN(Cc2ccccc2)C(=O)[C@@H]2CCCN2C1=O", "PAMPA (log10 cm/s)": "-5.81"}